Laboratory results: patent US12049520B2, “Bicyclic peptide ligands specific for CD137” (priority 2017, dated 2024)
Read-outs that look alike come from different tables or passages of the source.

Key:
CD137 = CD137 (Homo sapiens, UniProt Q07011); assay: CD137 direct binding assay (fluorescence polarisation); conditions: Table 1, fluorescein-labelled peptides, CD137 protein titrated from 3 μM
[1] = biological target: T1, human CD137 (AcroBiosystems) protein (Homo sapiens, UniProt Q07011); assay: CD137 Biacore (SPR), amine coupled CD137 target assay; assay type: binding; conditions: Table 4, SPR, amine coupled CD137 on CM5 chip
T1 construct: purchased AcroBiosystems

[2] = biological target: T2, Recombinant human CD137 homotrimer (Homo sapiens, UniProt Q07011); assay: CD137 Biacore (SPR), biotinylated CD137 target assay; assay type: binding; conditions: Table 5, SPR, biotinylated CD137 captured on streptavidin, 25° C.
T2 construct: purchased R&D systems
T2 sequence (Q07011 24-186 limits assumed): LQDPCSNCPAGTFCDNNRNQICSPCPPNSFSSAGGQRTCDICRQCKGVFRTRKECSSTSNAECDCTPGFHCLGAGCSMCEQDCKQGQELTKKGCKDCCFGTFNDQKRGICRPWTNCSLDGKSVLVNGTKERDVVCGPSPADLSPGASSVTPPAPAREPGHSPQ

| Substance | Kd (CD137) | Kd [2] | other results |
| --- | --- | --- | --- |
| [B-Ala]-Sar5-ACIEEGQYCYADPYYCA [BCY637] | 122 nM |  |  |
| ACIEEGQYCYADPYMCA-Sar6-K(FI) [BCY636] | 124 nM |  |  |
| ACIEEGQYCFADPYLCA [BCY599] |  |  | Kd [1]: 191 nM |
| [Ac]ACIEEGQYC[44BPA]ADPY[Nle]CA [BCY7942] |  | 35.9 nM |  |
| [Ac]ACIEEG[Oic]YCFADPY[Nle]CA [BCY7954] |  | 11.1 nM |  |
| [Ac]ACIPE[dA]PYCFADPY[Nle]CA [BCY7961] |  | 10 nM |  |
| [Ac]ACIEEGAYCFADPY[Nle]CA [BCY8667] |  | 68.5 nM |  |
| [Ac]ACIEEGQYCF[NMeAla]DPY[Nle]CA [BCY7945] |  | 665 nM |  |
| [Ac]ACI[Oxa]EGQYCFADPY[Nle]CA [BCY7958] |  | 20 nM |  |
| [Ac]ACIEEGQYC[2Pal]ADPY[Nle]CA [BCY7939] |  | 98.6 nM |  |
| [Ac]ACIEEGQ[44BPA]CFADPY[Nle]CA [BCY7936] |  | 43 nM |  |
| ACLDEGPFCFSDPYMCA-Sar6-K [BCY7261] | 453 nM |  |  |
| [Ac]ACIEEGQ[4MePhe]CFADPY[Nle]CA [BCY8670] |  | 1000 nM |  |
| ACIEEGQYCHADPYMCA-Sar6-K [BCY652] | 142 nM |  |  |
| [Ac]ACIEEGQYCFAD[Oic]Y[Nle]CA [BCY7955] |  | 169 nM |  |
| [Ac]AC[AC5C]EEGQYCFADPY[Nle]CA [BCY8658] |  | 200 nM |  |
| [Ac]ACIEEG[HyP]YCFADPY[Nle]CA [BCY7952] |  | 11.8 nM |  |
| Ac]ACIEEGQ[NMeTyr]CFADPY[Nle]CA [BCY7930] |  |  | Kd ([2]; read-out: KD): 993 nM |
| [Ac]ACIEE[dD]QYCFADPY[Nle]CA [BCY7928] |  | 97 nM |  |
| [Ac]CIEEGQYCFADPYMC [BCY593] |  | 37 nM |  |
| [Ac]ACIEEG(55DMP]YCFADPY[Nle]CA [BCY7950] |  | 31.1 nM |  |
| HEHCIEEGQYCYADPYMCA [BCY589] |  |  | Kd [1]: 124 nM |
| [Ac]ACI[Oic]EGQYCFADPY[Nle]CA [BCY7956] |  | 228 nM |  |

| Substance | Kd (CD137) | Kd [2] | other results |
| --- | --- | --- | --- |
| ACLEPGPYCYADPYMCTHL-Sar6-K [BCY7120] | 160 nM |  |  |
| [Ac]ACIEQGQYCFADPY[Nle]CA [BCY8662] |  | 179 nM |  |
| [Ac]ACIEE[AC5C]QYCFADPY[Nle]CA [BCY8665] |  | 200 nM |  |
| [Ac]ACIEEGQYC[2Nal]ADPY[Nle]CA [BCY8673] |  | 117 nM |  |
| G-Sar5-ACIEEGQYCFADPYMCA [BCY641] | 152 nM |  |  |
| [Ac]ACIPEGPYCFADPY[Nle]CA [BCY7960] |  | 10.7 nM |  |
| [Ac]AC[tBuAla]EEGQYCFADPY[Nle]CA [BCY8656] |  | 31 nM |  |
| [B-Ala]-Sar5-ACDEWGLFCIPHSDCA [BCY657] | 3620 nM |  |  |
| [Ac]ACIPEGQYCFADPY[Nle]CA [BCY8659] |  | 33.4 nM |  |
| [Ac]ACIEEG[AC5C]YCFADPY[NlelCA [BCY8669] |  | 33.2 nM |  |
| [Ac]ACIEEG[Oxa]YCFADPY[Nle]CA [BCY7959] |  | 37.7 nM |  |
| ACLDEGPYCFADPYFCA-Sar6-K [BCY7253] | 183 nM |  |  |
| [Ac]ACIEEGQ[1Nal]CFADPY[Nle]CA [BCY8671] |  | 297 nM |  |
| [Ac]AC[NMelle]EEGQYCFADPY[Nle]CA [BCY7923] |  | 1150 nM |  |
| ACIEEGQYCYADPYLCA-Sar6-K [BCY646] | 105 nM |  |  |
| [Ac]AC[Chg]EEGQYCFADPY[Nle]CA [BCY8657] |  | 62.4 nM |  |
| ACLDPGPFCFADPYMCA-Sar6-K [BCY7251] | 193 nM |  |  |
| ACIEEGQYCYADPYYCASar6-K [BCY638] | 192 nM |  |  |
| ACIEEGQYCFADPYMCA [BCY592] |  | 41.8 nM | Kd [1]: 70.9 nM |
| ACIEEGQYCYSDPYLCA-Sar6-K [BCY649] | 207 nM |  |  |
| ACDEWGLYCFAHPDCA-Sar6-K [BCY659] | 1040 nM |  |  |
| ACIEEGQYCHADPQMCA-Sar6-K [BCY653] | 383 nM |  |  |
| ACLDPGPYCYADPYMCTFH-Sar6-K [BCY7119] | 144 nM |  |  |

| Substance | Kd (CD137) | Kd [2] | other results |
| --- | --- | --- | --- |
| [Ac]ACIEEGQYC[4Pal]ADPY(Nle]CA [BCY7941] |  | 44.4 nM |  |
| [Ac]ACIEE[dA]QYCFADPY[Nle]CA [BCY8664] |  | 59.5 nM |  |
| [Ac]ACI[Aze]EGQYCFADPY[Nle]CA [BCY7924] |  | 59 nM |  |
| [Ac]AC[tBuAla]PE[dA]PYCFADPY[Nle]CA [BCY7965] |  | 4.75 nM |  |
| [Ac]ACIEEGQ[3Pal]CFADPY[Nle]CA [BCY7934] |  | 196 nM |  |
| [Ac]ACIEEGQYCFADPYMCA [BCY9273] |  | 108 nM |  |
| Ac]ACIEEGQYC[4tBuPhe]ADPY[Nle]CA [BCY7944] |  |  | Kd ([2]; read-out: KD): 42.2 nM |
| ACVEEGPFCFADPYYCA-Sar6-K [BCY7259] | 105 nM |  |  |
| ACLPPGPYCFPDPYFCA-Sar6-K [BCY7122] | 147 nM |  |  |
| [Ac]ACIEEGQYC[3Pal]ADPY[Nle]CA [BCY7940] |  | 58.6 nM |  |
| [Ac]ACIEEGQYCYRDMYMCA-Sar6-K(FI) [BCY634] | 1380 nM |  |  |
| [Ac]ACIEEGQYCF[Abu]DPY[Nle]CA [BCY8676] |  | 1000 nM |  |
| [Ac]ACIEEGQYCFAD[HyP]Y[Nle]CA [BCY7953] |  | 86.6 nM |  |
| [Ac]ACIEEGQ[HPhe]CFADPY[Nle]CA [BCY7931] |  | 1750 nM |  |
| ACDIGPPYCYRDMYMCA-Sar6-K [BCY655] | 1340 nM |  |  |
| [Ac]ACIEEGQYC[4BrPhe]ADPY[Nle]CA [BCY8675] |  | 57.5 nM |  |
| ACIEEGQYCHADPYFCA-Sar6-K [BCY644] | 145 nM |  |  |
| ACIEEGQYCYADHQLCA-Sar6-K [BCY642] | 246 nM |  |  |
| [B-Ala]-Sar5-ACIEEGQYCYADPYMCA [BCY635] | 126 nM |  |  |
| ACIEEGQYCHADPYYCA-Sar6-K [BCY643] | 148 nM |  |  |
| ACIEEGQYCYSDPYYCA-Sar6-K [BCY639] | 229 nM |  |  |
| [Ac]ACIEEG[NMeAla]YCFADPY[Nle]CA [BCY7929] |  | 269 nM |  |
| [Ac]ACI[Pip]EGQYCFADPY[Nle]CA [BCY7925] |  | 105 nM |  |

| Substance | Kd (CD137) | Kd [2] | other results |
| --- | --- | --- | --- |
| ACINEGPYCFADPYMCA-Sar6-K [BCY7255] | 136 nM |  |  |
| ACIEQGPFCFADPYMCA-Sar6-K [BCY7257] | 109 nM |  |  |
| [Ac]ACIQEGQYCFADPY[Nle]CA [BCY8660] |  | 380 nM |  |
| [Ac]ACIEE[dF]QYCFADPY[Nle]CA [BCY8663] |  | 25.1 nM |  |
| [Ac]ACIEEG[Aib]YCFADPY[Nle]CA [BCY8668] |  | 28.7 nM |  |
| [Ac]ACIEEGQYCFAD[Oxa]Y[Nle]CA [BCY7957] |  | 118 nM |  |
| [Ac]ACIEEGQYC[HPhe]ADPY[Nle]CA [BCY7937] |  | 556 nM |  |
| (Ac]ACIEPGQYCFADPY[Nle]CA [BCY8661] |  |  | Kd ([2]; read-out: KD): 154 nM |
| [Ac]ACIEEGQYC[NO2Phe]ADPY[Nle]CA [BCY8674] |  | 44.5 nM |  |
| [Ac]ACIEEGQ[2Pal]CFADPY[Nle]CA [BCY7933] |  | 790 nM |  |
| ACIEEGQYCFADPYMCA-Sar6-K [BCY640] | 84 nM |  |  |
| ACIEEGQYCYADPYLCSVG-Sar6-K [BCY647] | 392 nM |  |  |
| ACIEEGQYCF[dA]DPY[Nle]CA [BCY8217] |  | 500 nM |  |
| [Ac]ACIE[NMeGlu]GQYCFADPY[Nle]CA [BCY7927] |  | 1650 nM |  |
| ACLPPGPYCFPDPYFCA [BCY631] |  |  | Kd [1]: 92.3 nM |
| [Ac]ACIEEGQYC[1Nal]ADPY[Nle]CA [BCY7943] |  | 151 nM |  |
| ACIEEGQYCFADPY(Nle)CA [BCY3814] |  | 33.3 nM |  |
| [B-Ala]-Sar5-ACIEEGQYCYRDMYMCA [BCY633] | 1840 nM |  |  |
| [Ac]ACI[NMeGlu]EGQYCFADPY(Nle]CA [BCY7926] |  | 220 nM |  |
| ACIEEGQYCFADPYLCA-Sar6-K [BCY650] | 86.5 nM |  |  |
